Assay results published in ChEMBL document CHEMBL4145615, “Indolyl Azaspiroketal Mannich Bases Are Potent Antimycobacterial Agents with Selective Membrane Permeabilizing Effects and in Vivo Activity” (J Med Chem, 2018).

Experiment: Selectivity index, ratio of IC50 for African green monkey Vero E6 cells to MIC50 for Mycobacterium bovis BCG ATCC 35734
Assay type: toxicity, Vero C1008
Conditions: read-out: Selectivity Index

Q: With CCCCCCCCn1cc(CN2CCC3(CC2)OCCO3)c2ccc(OC)cc21 as the compound, how does the selectivity ratio read?
A: Its selectivity ratio is 23.
